Experimental data: patent US20030139468A1, “Amiodarone solutions suitable for intravenous administration” (American Home Products Corporation, priority 2002, published 2003)

Details: excess amiodarone in 10 ml of water at room temperature, rotated 24 hours at 50 rpm, filtered and assayed

## CCCCc1oc2ccccc2c1C(=O)c1cc(I)c(OCCN(CC)CC)c(I)c1 [amiodarone, 2-n-butyl-3-(3,5-diiodo-4-(β-N-diethylaminoethoxy)benzoyl) benzofuran]
  amiodarone contained in the solution: 0.9 mg/mL
